This is an account of results in PubChem BioAssay AID1850 (Southern Research Specialized Biocontainment Screening …, 2009).

Molecules are shown by their SMILES. pIC50: −log10 of the molar value.

The experiment has as its system Salmonella Typhi PhoP-promoter GFP reporter, fluorescence, 4 h. Briefly: PhoP regulon inhibitors, Salmonella typhi PhoP promoter GFP reporter, confirmatory (AID 1850).
`O=C(Nc1cccnc1)c1ccc([N+](=O)[O-])o1`: the pIC50 is 4.14.

`O=C(NNC(=S)Nc1ccc(Cl)c(Cl)c1)c1ccccn1`: the pIC50 was 4.73.

For `CCOC(=O)c1cn(CC)c2cc(N3CCN(C)CC3)c(F)cc2c1=O`, the pIC50 is 3.98.

As to `O=C(N/N=C/c1ccc([N+](=O)[O-])o1)C1CC1`, the negative logarithm of the IC50 (pIC50) was 4.44.

One may read the pIC50 as −log10 of the IC50, conventionally taken in molar units.
